The experiment deals with 5-hydroxytryptamine receptor 4 (Cavia porcellus) (UniProt O70528). As to the kind of experiment: Displacement of [3H]GR113808 from 5HT4R in guinea pig striatal membranes at 1 uM. In kind it is cell membranes. The following applies: Striatum, Membrane. A digest of the protocol:
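Native 5-HT4R in male guinea pig striatal membranes (HEPES 50 mM pH 7.4); 600 µg membrane incubated in duplicate with [3H]GR 113808 at 0.1 nM final, 37 °C, 30 min; filtration on PEI-soaked GF/B filters, cold buffer washes.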
In general terms: Displacement assays read how much labelled ligand stays bound in the presence of the test substance.

Protein sequences, listed by entry. Tags and fused reporters are not part of them. Lines headed by an entry give the natural chain unless they say otherwise; changes in a name come on top.
UniProt O70528: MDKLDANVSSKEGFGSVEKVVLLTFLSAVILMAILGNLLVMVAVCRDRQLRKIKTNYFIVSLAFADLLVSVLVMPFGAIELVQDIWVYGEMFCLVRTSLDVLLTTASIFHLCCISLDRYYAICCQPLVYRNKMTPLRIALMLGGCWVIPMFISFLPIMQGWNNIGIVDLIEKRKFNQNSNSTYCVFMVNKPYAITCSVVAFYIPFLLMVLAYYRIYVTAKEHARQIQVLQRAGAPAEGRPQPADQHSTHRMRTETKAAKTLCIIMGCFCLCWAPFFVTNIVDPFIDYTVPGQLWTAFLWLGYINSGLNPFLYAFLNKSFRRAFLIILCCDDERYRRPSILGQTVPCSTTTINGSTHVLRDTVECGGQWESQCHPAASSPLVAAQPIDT

Each structure is given as a SMILES string.

As a reminder, the inhibition is the share of the control response that was lost under treatment.

`CCCN1CCC(COc2nc3ccccc3c3cc(F)ccc23)CC1` registered an inhibition of 84%.

With `CCCN1CCC(COc2nc3ccc(OC)cc3c3ccccc23)CC1`, the inhibition amounted to 83%.

The values are drawn from ChEMBL document CHEMBL2176996, “Synthesis and structure-affinity relationships of selective high-affinity 5-HT(4) receptor antagonists: application to the design of new potential single photon emission computed tomography tracers” (J Med Chem, 2012).
